Test results taken from PubChem BioAssay AID463190 (Sanford-Burnham Center for Chemical Genomics, 2010).
The entries are a selection whose mix differs from that of the whole data set. Active and inactive are the calls of the source.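 The calls were made as follows: active = inhibition of at least 40%; inactive = the rest.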

Assay: growth inhibitors of tim10-1 mutant yeast, primary screen, luminescence, uHTS (AID 463190);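 also: mutant grown at 25 °C; 0% = DMSO wells with yeast and 100% = wells holding no yeast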
Settings: S. cerevisiae tim10-1 ts strain growth, BacTiter-Glo, 24 h; at 20 µM; active compounds read high

Row | SMILES | inhibition
1 | c1nnnn1CCn1cnnn1 | inactive: 3.1%
2 | CC(C)C(=O)NC(Sc1ccccc1)C(Cl)(Cl)Cl (stereo not drawn) | inactive: 16.7%
3 | O=P(Nc1nccs1)(c1ccccc1)c1ccccc1 | inactive: 3.21%
4 | C(Cc1nn[nH]n1)Cc1nn[nH]n1 | inactive: -2.99%
5 | Nc1ccc([As](=O)(O)c2ccc([N+](=O)[O-])cc2)cc1 | inactive: -15.1%
6 | O=C(OC1CN2CCC1CC2)c1cccc(Cl)c1 (stereo not drawn) | inactive: 4.06%
7 | O=[N+]([O-])c1ncn(CCn2cnc([N+](=O)[O-])n2)n1 | inactive: -2.76%
8 | O=[As](O)(c1ccccc1)c1ccc(O)cc1 | inactive: 1.15%
9 | C[C@H]1OP(=O)(Oc2ccccc2)[C@H](O)[C@H](O)[C@H]1N=[N+]=[N-] (stereo partly drawn) | inactive: -23.3%
10 | O=P(Nc1nc2ccccc2s1)(c1ccccc1)c1ccccc1 | inactive: 3.9%
11 | O=P(Nc1ccccn1)(c1ccc(Br)cc1)c1ccc(Br)cc1 | inactive: 17.3%
12 | CN(C)C1(CNC(=O)c2ccc(Cl)c(S(N)(=O)=O)c2)CCCCC1 | inactive: 12.8%
13 | CN(C)C(=O)Oc1noc2ccccc12 | inactive: -9.51%
14 | CC(NC(=O)COC(=O)C(O)(c1ccccc1)c1ccccc1)c1ccccc1 (stereo not drawn) | inactive: 12.2%
15 | Cc1ccccc1OP(=O)(Nc1ccccn1)Oc1ccccc1C | inactive: 24.6%
16 | Cc1ccc(OP(=O)(Nc2ccccn2)Oc2ccc(C)cc2)cc1 | inactive: 17.4%
17 | CC(=O)NC(SC(=S)N(CC(C)C)CC(C)C)C(Cl)(Cl)Cl (stereo not drawn) | active: 46.7%
18 | COC(=O)c1cc2c(s1)N=C(c1ccccc1)N(C)P2(=O)N1CCOCC1 (stereo not drawn) | inactive: 9.13%
19 | CCC(=O)N1C2C3N(C(=O)CC)C1C1N(C(=O)CC)C(C(N1C(=O)CC)N3C(=O)CC)N2C(=O)CC | inactive: 7.25%
20 | O=C(OC1CN2CCC1CC2)c1ccccc1 (stereo not drawn) | inactive: 2.47%
21 | CCNC(=S)/N=C(\N)N[N+](=O)[O-] | inactive: -4.95%
22 | O=C(NC1CCS(=O)(=O)C1)NP(=S)(Oc1ccccc1)Oc1ccccc1 (stereo not drawn) | inactive: -4.49%
23 | CCOC(=O)NC(Sc1ccccc1)C(Cl)(Cl)Cl (stereo not drawn) | inactive: 5.42%
24 | Cc1ccc(NP(=O)(Oc2cccc(C)c2)Oc2cccc(C)c2)nc1 | inactive: -14.3%
25 | c1ccc(-c2nn[nH]n2)c(-c2nn[nH]n2)c1 | inactive: 3.16%
26 | CC(=O)Nc1ccc(Oc2c([N+](=O)[O-])cc([N+](=O)[O-])cc2[N+](=O)[O-])cc1 | inactive: 0.28%
27 | CC(=O)Nc1ccc([As](=O)(O)O)c(O)c1 | inactive: -9.93%
28 | CC(=O)c1ccc(N2CC2c2ccncc2)cc1 (stereo not drawn) | inactive: -4.13%
